# Measured affinities in a library of Ab-91 heavy chain variants

Target peptide (SARS-CoV-2 spike, HR2 region): PDVDLGDISGINAS

Parent scFv Ab-91: VL joined to VH by a 15-residue (Gly4Ser)3 linker. Changes lie in the heavy chain CDRs alone.
VL: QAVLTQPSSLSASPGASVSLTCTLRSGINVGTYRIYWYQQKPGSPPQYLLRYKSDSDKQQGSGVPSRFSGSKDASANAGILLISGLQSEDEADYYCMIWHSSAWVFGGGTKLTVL
VH: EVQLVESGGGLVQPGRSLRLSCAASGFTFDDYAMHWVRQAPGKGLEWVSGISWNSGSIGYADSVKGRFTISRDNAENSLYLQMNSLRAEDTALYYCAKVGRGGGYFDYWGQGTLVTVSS

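AAYL51 was designed without a model: most single CDR substitutions and a random sample of double and triple ones. The scFvs were displayed on barcoded MATa yeast, the peptide on MATalpha yeast. After mating in shaken culture at 30 °C for 16 h, diploids were selected and their barcode pairs sequenced. The ratio of observed to expected reads was calibrated, replicate by replicate, on BCL2-family standards whose Kd was known from biolayer interferometry. The assay was run in three technical replicates.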

The parent's heavy chain CDRs are GFTFDDYAMH, GISWNSGSIGYADSVK, VGRGGGYFDY; each variant's own CDRs replace them letter for letter. Values are log10 of the apparent Kd in nM; lower means stronger binding. "ND" means that the variant was in the library but no mating with the target was seen in that replicate; the authors take this as a sign of poor binding, and no number exists. In this assay the parent's reference entry averaged 1.86; its copy inside this library read 0.88. Three control strains display no target. For library AAYL51, 21% of the pairings with them gave a signal, with a median of 4.54 and one signal in twenty below 3.26, so weak values seen in few replicates may be background. The control count says in how many pairings with the empty strains this scFv gave a signal, with their mean in brackets.

| CDR-H1 | CDR-H2 | CDR-H3 | replicates, log10 nM | control signals |
|---|---|---|---|---|
| NFTFDDYAMH | SISWNSGSIGYRDSVK | VGRGGGYFDY | ND ND ND | 1 of 9 (5.29) |
| GFTFDDYAMH | GVSWNSYSILYADSVK | VGRGGGYFDY | ND ND ND | 2 of 9 (4.40) |
| GFTFDDYAMH | GISWNSGSCGYAMSVK | VGRGGGLFDY | 3.67 4.27 3.65 | 1 of 9 (5.73) |
| GFTFDDYAMH | NISWNSGSIGYADSVK | VGRGGHYCDY | ND ND ND | 0 of 9 |
| GFTGDDYSMH | GISWNSGSIGYADSVK | KGRGGGYFDY | 4.80 ND 3.97 | 2 of 9 (3.33) |
| GFTFDDHAMH | GISWNSGSIGYLDSVK | VGRGGGYYDY | ND ND ND | 0 of 9 |
| GFTFDDYAMH | GISWNCGSIGYADSVK | VGRGGGYFDY | 4.31 2.88 ND | 0 of 9 |
| GFTQDDYAMH | GISWNSPSIGYADSVK | VDRGGGYFDY | ND 4.58 4.96 | 5 of 9 (4.83) |
| GFTFDDYAMH | GISWNSGSGGYADSVK | VGSGGGYFDY | ND ND ND | 0 of 9 |
| GFMFDKYAMH | GISWNSGSIGHADSVK | VGRGGGYFDY | 1.98 1.89 1.45 | 3 of 9 (3.99) |
| GFTFDDYAMH | GISWKSGSWGYADSVD | VGRGGGYFDY | 4.42 4.11 ND | 3 of 9 (3.63) |
| GFTFDDYAMH | GISDNSGSICYADSVK | VHRGGGYFDY | ND ND ND | 3 of 9 (4.14) |
| GFTFDDYAMH | GISWNSTSIGYADSVK | VGRGGGYFFA | ND 4.75 ND | 1 of 9 (3.93) |
| GFTFDDYAGH | GISWNSGSIGAADSVK | VGRGGGYVDY | ND ND ND | 1 of 9 (3.98) |
| GFTCDDYAMH | GISWNSTSIGYWDSVK | VGRGGGYFDY | 6.08 7.05 ND | 5 of 9 (4.95) |
| GFTFRDYAMH | GISWNSGSIKYADSVN | VGRGGGYFDY | 4.40 4.50 4.27 | 4 of 9 (4.62) |
| GFTFDDYAMH | GMSWFSGSIGYADSVK | VGRGGYYFDY | ND ND ND | 2 of 9 (3.75) |
| GFTFDDYAMH | GISWNSGSIWYADSVK | HGRGWGYFDY | ND ND ND | 1 of 9 (4.01) |
| GFTFDDQAMH | GISCNSGSIGYADSVK | VGRGGGYFDY | ND 5.86 ND | 2 of 9 (3.70) |
| GFTFDDYARH | GISWGSGSIGYADSVK | VGRRGGYFDY | ND ND ND | 0 of 9 |
| GFTFDDYAMN | GISWNSGSIGYADSVK | VIRGGGYFDT | 4.85 5.26 4.95 | 4 of 9 (5.04) |
| GFRFDDYAMH | GISDNSGSIGYADSVK | YGRGGGYFDY | 4.63 ND 4.43 | 4 of 9 (4.97) |
| GRTFDDYAMH | GISWKSGSIGYADSVK | NGRGGGYFDY | ND ND ND | 5 of 9 (4.67) |
| GFTFDDYFMH | GISWASVSIGYADSVK | VGRGGGYFDY | 4.65 5.09 ND | 3 of 9 (4.59) |
| GFTFDDYAMH | GISWNSGSWGYADSVK | VLRGGGYFDY | ND ND ND | 0 of 9 |
| GFTFDDYANH | GISPNSGSIGYADSVK | VGRGGGYFSY | ND ND ND | 0 of 9 |
| GETFDDYAMH | GISWNSGSIGYADSVK | VGRAGGYFDF | 5.04 5.76 5.93 | 6 of 9 (4.52) |
| GFTFDDYADH | GISWNSGSIGYADSVK | VGRGCGYHDY | ND ND 4.83 | 1 of 9 (3.91) |
| GFTFDDYAMH | GISWNNGSIGYADSVR | IGRGGGYFDY | 2.00 1.93 1.18 | 1 of 9 (3.96) |
| GFTFDDYAMH | GISWNSGSIGYADSMK | VTRGGGYFYY | ND ND ND | 0 of 9 |
| GFTFDDYAMH | GFSWNSGAIGYGDSVK | VGRGGGYFDY | ND ND ND | 0 of 9 |
| GFFFDDYAMH | GYSWNSGSIGYADSRK | VGRGGGYFDY | ND 5.04 ND | 2 of 9 (3.69) |
| GFTFDDYAMH | GISRNSGSIGYADSRK | VGRGGHYFDY | ND ND ND | 1 of 9 (3.27) |
| GFTFDDYAMH | GISWESGSIGYADSVE | VGREGGYFDY | 3.39 ND ND | 0 of 9 |
| GFTFDDYFMH | GISWNSGSIGQADSVK | VGRGGMYFDY | 5.33 ND ND | 2 of 9 (4.85) |
| GRTFDDYAMH | GISTNSGSIGYAASVK | VGRGGGYFDY | ND 5.86 4.62 | 3 of 9 (4.78) |
| GFTFDDIAMH | GISWNSGMIGYAESVK | VGRGGGYFDY | 4.26 4.80 4.98 | 9 of 9 (4.96) |
| GFQFDDYAMH | GISWNSGSIGYADSVK | VGRGGNMFDY | 3.17 ND ND | 0 of 9 |
| GFTFDHYNMH | GISWNSGSIGYADSVK | VGRGGGYFDA | ND ND ND | 0 of 9 |
| GQTFDDYWMH | GISWNAGSIGYADSVK | VGRGGGYFDY | 4.82 4.24 ND | 1 of 9 (4.86) |
| GFTNDDYAMH | GISWNSGSIGYADSVI | VGRGGGYFTY | 5.96 4.35 4.12 | 5 of 9 (4.60) |
| NFTFDDYAMH | GISWNSGSIGYLDSVK | VGRGGGSFDY | 4.04 5.09 5.45 | 6 of 9 (4.71) |
| GFTFDDYAMH | GESWNSGSIGYAKSVK | VGRGIGYFDY | ND ND ND | 0 of 9 |
| GFTFDDYAMH | GISWNSGLIGYADSVK | VGRGVGYFDE | ND ND ND | 0 of 9 |
| GFTFGDYARH | GISWNSGSIGYADSVK | VGRGGGSFDY | ND ND ND | 1 of 9 (2.84) |
| GFTFDDYAMH | GISWNSGSIGYADEVK | VGIGGGYFDY | 1.58 1.71 1.53 | 1 of 9 (4.81) |
| GFTFDDYAMH | GRSWNSGSIGYMDSVK | VGRGRGYFDY | 4.17 5.52 ND | 2 of 9 (3.69) |
| GFTFDDYGMH | GINWNSGSIGYADSVK | VGRGGGYFDY | 4.57 4.68 5.16 | 1 of 9 (5.45) |
| GFTFDDYAMH | GISWNSNSIGYAMSMK | VGRGGGYFDY | 2.39 3.25 2.64 | 3 of 9 (4.02) |

Extract of 3 entries:

| CDR-H1 | CDR-H2 | CDR-H3 | replicates, log10 nM | control signals |
|---|---|---|---|---|
| GFRFDDYAMH | GISDNSGSIGYADSVK | YGRGGGYFDY | 4.63 ND 4.43 | 4 of 9 (4.97) |
| GFQFDDYAMH | GISWNSGSIGYADSVK | VGRGGNMFDY | 3.17 ND ND | 0 of 9 |
| GFTFDDYAMH | GISWNSGSIGYADEVK | VGIGGGYFDY | 1.58 1.71 1.53 | 1 of 9 (4.81) |

From the AlphaSeq antibody data of Engelhart et al. 2022 (doi:10.1038/s41597-022-01779-4), copy in the FLAb collection.